Laboratory results: ChEMBL document CHEMBL5608169, “A chemical modification of a peroxisome proliferator-activated receptor pan agonist produced a shift to a new dual alpha/gamma partial agonist endowed with mitochondrial pyruvate carrier inhibition and antidiabetic properties” (Eur J Med Chem, 2024)

target: T1, Peroxisome proliferator-activated receptor delta (Homo sapiens) (UniProt Q03181); assay: Partial agonist activity at N-terminal Gal4-fused human PPARdelta LBD transfected in human HepG2 cells assessed as maximum efficacy at 50 uM incubated for 20 hrs by luciferase based luminometric assay relative to control; type: cell-based
T1 sequence (whole entry): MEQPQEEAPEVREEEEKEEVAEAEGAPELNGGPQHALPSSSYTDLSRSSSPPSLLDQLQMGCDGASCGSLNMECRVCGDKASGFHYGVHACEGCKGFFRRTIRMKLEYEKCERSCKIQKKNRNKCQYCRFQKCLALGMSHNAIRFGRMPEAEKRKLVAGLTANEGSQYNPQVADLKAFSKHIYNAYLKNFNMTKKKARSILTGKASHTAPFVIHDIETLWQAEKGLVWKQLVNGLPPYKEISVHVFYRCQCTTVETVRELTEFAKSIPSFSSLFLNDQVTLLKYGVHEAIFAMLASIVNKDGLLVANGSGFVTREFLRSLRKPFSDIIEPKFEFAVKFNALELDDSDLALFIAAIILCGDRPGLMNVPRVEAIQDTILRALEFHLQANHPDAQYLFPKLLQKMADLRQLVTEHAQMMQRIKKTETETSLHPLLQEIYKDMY

Compared with `CC[C@@](C)(Oc1ccc(-c2cccc3ccccc23)cc1)C(=O)O.NC1CCCCC1`, `CC[C@](C)(Oc1ccc(-c2cccc3ccccc23)cc1)C(=O)O.NC1CCCCC1` is lower in Emax: 17% for the first, 12% for the second.

First: C[C@H](Oc1ccc(-c2cccc3ccccc23)cc1)C(=O)O
Second: C[C@@H](Oc1ccc(-c2cccc3ccccc23)cc1)C(=O)O
The Emax of the first is lower: 12% for the first, 17% for the second.

In the case of `CCC(C)(Oc1ccc(-c2cccc3ccccc23)cc1)C(=O)O` (racemic), the Emax was 17%.
